From US8513219B2, “Substituted phosphonates and their use in decreasing amyloid aggregates” (Queen Mary & Westfield College, University of London, priority 2007, dated 2013)

What was measured:
[1] = system: H4 cells (human neuroblastoma cell line); assay: H4 cell survival (MTT / Neutral Red assays); settings: for cell survival (% controls), 5 day repeated doses / cell survival (% controls), 5 day single dose: H4 cells, 1 μM, average of 2-3 experiments; for effect on H4 cell survival/viability: 5 days, single exposure
[2] = system: amyloid accumulation in H4 cells; assay: H4 cell amyloid accumulation (6E10 antibody, HRP/OPD absorbance); type: cell-based, human; settings: 1 μM, average of 2-3 experiments
[3] = system: zinc in the brain parenchyma; assay: zinc distribution in the CNS (autometallography) and systemic toxicity after 4 days administration in mice; settings: 10 mg/kg i.p.
β-amyloid plaques = settings: APP transgenic mouse, 4 weeks; compounds 10 mg/kg i.p.; clioquinol 30 mg/kg p.o. or 10 mg/kg i.p.

Substance	cell survival (% controls), 5 day repeated doses [1]	cell survival (% controls), 5 day single dose [1]	amyloid reduction (% controls), 5 day repeated doses [2]	amyloid reduction (% controls), 5 day single dose [2]	effect on H4 cell survival/viability [1]	zinc staining signal in the central nervous system [3]	amyloid plaque load in brain (β-amyloid plaques)
Diethyl N-(tert-butoxycarbonyl)-L-tyrosyl methyl ester methylphosphonate	80 % controls	99 % controls	17 % controls	10 % controls			
Diethyl 5-indolyloxy methylphosphonate	76 % controls	90 % controls	16 % controls	33 % controls	did not affect significantly cell survival	Decreases in the zinc signal	reduced the plaque load
Diethyl 7-oxomethylphosphonate-4-methylcoumarin	78 % controls	104 % controls	19 % controls	37 % controls	did not affect viability	Decreases in the zinc signal	
Diethyl N-acridonyloxymethyl phosphonate	86 % controls	116 % controls	52 % controls	57 % controls			
Diethyl 8-quinolyloxy methylphosphonate	95 % controls	89 % controls	71 % controls	36 % controls			
